The full list was thinned out, with hits kept by preference.
GIV-Gai inh = GIV-Galpha-i interaction inhibition; AID 1224905; 210,000 tested, 0.42% active; Galpha-i3/FITC-GIV peptide fluorescence polarization, 90 min; stronger effect = lower value; scaled: aluminum fluoride 0%, vehicle 100%; percent of control (FP), % (concentration not given with the values);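 active = replicate mean at 85% of control or lower, very high polarization wells dropped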;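 also: wells of about 15 µL received 100 nL stock; the first replicate is given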
GIV-Gai FP conf = GIV-Galpha-i3 inhibition, FP confirmation; fluorescence polarization, mP at 100 µM; shares compounds with GIV-Gai inh; 38% of 580 active; AID 1259350; FITC-GIV peptide binding to Galphai3, fluorescence polarization; hits give low values;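 active = inhibition score of 15 or more, meaning 100 minus mean polarization as percent of control over three replicates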;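 note: lower mP means peptide displaced from Galphai3 so more inhibition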
GIV Gai AS conf = GIV-Galpha-i3 inhibition, AlphaScreen confirmation; shares compounds with GIV-Gai inh; AlphaScreen Galphai3-GIV binding, purified proteins, 90 min; hits give low values; AlphaScreen counts at 100 µM; 39% of 580 active; AID 1259351;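 active = inhibition score at or above a set limit, where the score is 100 minus the three-replicate mean percent of control signal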
* = called active by the depositor.

SMILES	GIV-Gai inh	others
CCOC(=O)c1sc2nc(SCC#N)n(Cc3ccccc3)c(=O)c2c1C	105
O=C(/C=C/C=C/c1ccco1)c1ccccc1	116
O=C(/C=C/c1ccco1)/C=C/c1ccco1	45*	GIV-Gai FP conf=61;GIV Gai AS conf=42048
O=C(/C=C/c1ccccc1)/C=C/c1ccco1	120
CCCNC(=O)c1ccc(-n2c(C)cc3c2CCCC3)cc1	120
Cc1ccc(N2C(=O)C(N3C(=O)c4ccccc4C3=O)C2c2ccc(OC(F)F)cc2)cc1 (configuration not stated)	122
CCOC(=O)c1ccc(-n2c(C)cc(C=C3C(=O)N(C)C(=S)N(C)C3=O)c2C)cc1	113
CCOC(=O)c1ccc(-n2c(C)cc(/C=N/O)c2C)cc1	107
CCOC(=O)c1ccc(-n2c(C)cc(C=C3C(=O)NC(=S)NC3=O)c2C)cc1	78*	GIV-Gai FP conf=64;GIV Gai AS conf=10801*
CCC1CN(C(=O)Nc2ccc(OC)cc2)c2ccccc2S1 (configuration not stated)	106
c1ccc2[nH]c(C3CCN(CC4OCCO4)CC3)nc2c1	104
O=C(NCCC1=CCCCC1)c1cccc(-c2cc(N3CCCC3)ncn2)c1	110
O=S(=O)(c1ccccc1)c1nnn2c1nc(Nc1ccccc1)c1sccc12	101
Cc1nc(N2CCN(C)CC2)c2c(C)c(C(=O)Nc3cccc(Cl)c3)sc2n1	94	GIV-Gai FP conf=65;GIV Gai AS conf=54788
COc1ccc(Cl)cc1NC(=O)c1sc2nc(C)nc(N3CCN(C)CC3)c2c1C	97
Cc1nc(N2CCN(C)CC2)c2c(C)c(C(=O)Nc3c(F)cccc3F)sc2n1	101
CN(C(=O)C(Cc1ccccc1)n1cccc1)C1CCCCC1 (configuration not stated)	97
CC1=NN(CCC(=O)O)CC1	105
CCN1CCSc2ccc(C(=O)NCC3CCCO3)cc21 (configuration not stated)	103
CN1C(C(=O)c2ccccc2)=C(NC(=O)c2ccccc2)c2ccccc2S1(=O)=O	67*	GIV-Gai FP conf=66;GIV Gai AS conf=42284
CCN1C(C(=O)c2ccccc2)=C(NC(=O)c2ccc(Cl)cc2)c2ccccc2S1(=O)=O	104
CCCCCN1C(C(=O)c2ccccc2)=C(NC(=O)c2ccc(OC)cc2)c2ccccc2S1(=O)=O	99
Cc1ccc(-c2csc(Cc3nc(-c4ccccc4)no3)n2)cc1C	109
Cc1noc2c1C(c1ccc(O)cc1)C1=C(CC(c3ccc(Cl)cc3)CC1=O)N2 (configuration not stated)	107
Cc1ccccc1NC(=O)c1sc2nc(-c3cc4ccccc4oc3=O)[nH]c(=O)c2c1C	71*	GIV-Gai FP conf=38*;GIV Gai AS conf=23058
Going on with the list:
SMILES	GIV-Gai inh	others
Cc1ccccc1NC(=O)c1sc2nc3n(c(=O)c2c1C)N=C(c1ccccc1)CS3	100
Cc1ccccc1NC(=O)c1cc2ccccc2o1	100
COc1ccc(NC(=O)c2sc3nc4c(c(-c5ccco5)c3c2N)CCCC4)cc1	84*	GIV-Gai FP conf=65;GIV Gai AS conf=55254
COc1ccc(NC(=O)c2sc3nc4c(c(-c5ccco5)c3c2N)CCCCC4)cc1	106
COc1ccc(NC(=O)c2sc3nc4c(c(-c5ccco5)c3c2N)CCC4)cc1	107
O=C(c1ccco1)N1CCN(S(=O)(=O)c2ccc3c(c2)Cc2cc(S(=O)(=O)N4CCN(C(=O)c5ccco5)CC4)ccc2-3)CC1	108
S=C(Nc1ccccc1)N1CCCCCC1	99
S=C(Nc1ccccc1)N1CCN(c2ccccc2)CC1	97
CC1(C)CC2(CCCN(C(=S)Nc3ccccc3)C2)CCO1 (configuration not stated)	90	GIV-Gai FP conf=68;GIV Gai AS conf=33599
CC1(C)CC(=O)C2=C(C1)OC(N)=C(C#N)C2c1ccc2c(c1Cl)OCO2 (configuration not stated)	92
CC(C)(C)OC(=O)N1CCCN(S(=O)(=O)c2cccc(C(F)(F)F)c2)CC1	100
O=C(NN1CC(=O)N(CCc2ccccc2)C1=O)c1cccnc1	102
CC(=Nc1ccccc1Cl)c1sc2ccccc2c1O	90
CC(=Nc1ccccc1O)c1sc2ccccc2c1O	127
CC(=Nc1ccccc1Br)c1sc2ccccc2c1O	72*	GIV-Gai FP conf=62;GIV Gai AS conf=63874
Cc1ccc2c(=O)c(-c3nc(-c4cccc(F)c4)no3)cn(CC(=O)NCc3ccccc3)c2n1	114
COc1ccc(CNC(=O)Nc2ccc3c(c2)N(Cc2ccccc2)C(=O)c2ccccc2S3)cc1	101
Cc1cc(-c2nn3c(-c4cccnc4)nnc3s2)c2ccccc2n1	115
CCCc1[nH]c(=O)cc2cc(OC)c(OC)cc12	77*	GIV-Gai FP conf=58;GIV Gai AS conf=23102*
COc1ccc2c(C)[nH]c(=O)cc2c1	104
CCCc1cc(=O)[nH]c(Nc2cc(Cl)ccc2OC)n1	99

Ordered by length of the SMILES (rising): some entries from above.
SMILES	GIV-Gai inh	others
CC(=Nc1ccccc1Cl)c1sc2ccccc2c1O	90
CC1(C)CC2(CCCN(C(=S)Nc3ccccc3)C2)CCO1 (configuration not stated)	90	GIV-Gai FP conf=68;GIV Gai AS conf=33599
COc1ccc(NC(=O)c2sc3nc4c(c(-c5ccco5)c3c2N)CCCCC4)cc1	106

Retrieved one by one from the entries so far (two):
SMILES	GIV-Gai inh	others
CC(=Nc1ccccc1Cl)c1sc2ccccc2c1O	90
Cc1ccccc1NC(=O)c1cc2ccccc2o1	100

Source: PubChem
